SMILES strings stand for the structures. Calls of active or inactive are those of the source. No cut-off for these calls is given here.

The target in this experiment is T1, Peroxisome proliferator-activated receptor alpha (Homo sapiens) (UniProt Q07869).
T1 sequence (whole entry): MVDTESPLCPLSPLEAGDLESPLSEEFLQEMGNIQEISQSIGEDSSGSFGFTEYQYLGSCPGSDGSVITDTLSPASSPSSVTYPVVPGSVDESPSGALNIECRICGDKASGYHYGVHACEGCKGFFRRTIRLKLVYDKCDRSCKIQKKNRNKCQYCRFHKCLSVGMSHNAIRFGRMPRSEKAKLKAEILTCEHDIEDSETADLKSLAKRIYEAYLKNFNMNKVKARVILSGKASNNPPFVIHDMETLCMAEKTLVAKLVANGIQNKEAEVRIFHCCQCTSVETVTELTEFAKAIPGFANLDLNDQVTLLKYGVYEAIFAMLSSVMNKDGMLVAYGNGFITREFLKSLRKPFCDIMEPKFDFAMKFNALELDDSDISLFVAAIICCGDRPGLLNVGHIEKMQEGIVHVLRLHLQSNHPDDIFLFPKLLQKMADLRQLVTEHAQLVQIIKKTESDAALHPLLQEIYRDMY
The experiment can be described thus: Agonist activity at human GAL4-fused PPARalpha ligand binding domain expressed in HepG2 cells after 20 hrs by luciferase reporter gene transactivation assay relative to WY14643. Format: cell-based.
Regarding `CCCCCCCN(CCc1ccc(O[C@@H](Cc2ccccc2)C(=O)O)cc1)c1nc2ccccc2o1.NC1CCCCC1`, the Emax entry was “inactive”. Compound `CCCCCCCN(CCc1ccc(O[C@H](Cc2ccccc2)C(=O)O)cc1)c1nc2ccccc2o1.NC1CCCCC1` showed an Emax of 26%. With `CCCc1c(OCCCOc2ccc(OCC(=O)O)cc2)ccc(C(C)=O)c1O` the entry was “inactive”.

Values taken from ChEMBL document CHEMBL2202967, “Synthesis, characterization and biological evaluation of ureidofibrate-like derivatives endowed with peroxisome proliferator-activated receptor activity” (J Med Chem, 2012).
